Laboratory results published in patent US20100125103A1, “COMPOSITION FOR THE TREATMENT OF DIABETES AND METABOLIC SYNDROME CONTAINING OBOVATOL AND ITS SYNTHESIZED DERIVATIVES” (TG BIOTECH CO. LTD., priority 2008, published 2010).

Test: Solubility (Table 1)
Assay type: physicochemical
Experimental: Each of the compounds prepared by Examples 1 to 7 were subjected to UV absorbance analysis, IR(infrared) absorbance analysis and high resolution mass spectrometry analysis so as to determine the molecular weight and formula of the purified compound. Specifically, UV absorbance analysis was carried out by UV-265 spectrophotometer (Shimadzu), IR absorbance analysis was carried out by FTS-80 spectrophotometer (Bio-Rad Digilab Division), and the molecular weight and formula were determined through High resolution MS analysis by using VG70-SEQ mass spectrometry. Also, a nuclear magnetic resonance device (Varian 300, 500 NMR) was used to obtain ^1H, ^13C-NMR spectrum, and the spectrum was synthetically analyzed to determine the structure.

obovatol [Example 1]
Solubility Insoluble (solvents in which the compound is insoluble): Water | Solubility Soluble (solvents in which the compound is soluble): Alcohol, and DMSO
